For data set [1], the system named is CCCCCCCCCC(=O)CC(=O)N[C@H]1CCOC1=O. Description: purified protein. As to conditions: pH 8.3.
The subject of another data set is CCCC(=O)N[C@H]1CCOC1=O. The data set is described as follows: purified protein. As to conditions: pH 8.3.

On to “SsoPox (Saccharolobus solfataricus P2; W263I)”, for which the figures for the Km (in data set [1]; in the data set on CCCC(=O)N[C@H]1CCOC1=O) were 40 ± 10 µM and “(4.3 ± 0.1) × 10^3 μM”, respectively. The results for the kcat/Km (in data set [1]; in the data set on CCCC(=O)N[C@H]1CCOC1=O) were 80000 M⁻¹ s⁻¹ and 86 M⁻¹ s⁻¹, respectively.

These data come from article PMC7193897.
